Reference: patent US12552755B2, “Cinnamic amide derivative having FXR activating effect, pharmaceutical composition containing the same as active ingredient, and method for preparing the same” (KYUNGSUNG UNIVERSITY INDUSTRY COOPERATION FOUNDATION, priority 2019, dated 2026)

Target: T1, farnesol X receptor (FXR) (Homo sapiens, UniProt Q96RI1)
T1 construct: endogenous in cells; host or cells: HepG2
T1 sequence (Q96RI1 1-486): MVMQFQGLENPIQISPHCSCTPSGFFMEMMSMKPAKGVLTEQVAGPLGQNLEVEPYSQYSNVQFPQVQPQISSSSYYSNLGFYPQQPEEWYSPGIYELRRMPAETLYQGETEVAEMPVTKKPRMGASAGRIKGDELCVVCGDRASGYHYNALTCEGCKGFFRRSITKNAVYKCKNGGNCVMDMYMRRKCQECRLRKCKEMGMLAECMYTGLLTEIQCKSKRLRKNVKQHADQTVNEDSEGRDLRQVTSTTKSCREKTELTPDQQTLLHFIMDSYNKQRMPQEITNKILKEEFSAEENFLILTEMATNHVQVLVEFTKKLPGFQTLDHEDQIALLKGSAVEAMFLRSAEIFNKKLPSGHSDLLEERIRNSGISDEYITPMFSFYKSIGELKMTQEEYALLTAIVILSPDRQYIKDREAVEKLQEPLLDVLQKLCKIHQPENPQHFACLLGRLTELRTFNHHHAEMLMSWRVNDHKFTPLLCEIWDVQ
Assay: Farnesol X receptor (FXR) reporter gene assay (dual luciferase) in HepG2 cells
Format: cell-based
Conditions: drug treatment 24 hours, firefly/renilla luciferase ratio, Con = 1.00
Method: HepG2 cells were purchased from ATCC (Manassas, VA, USA) and cultured in Dulbecco's modified Eagle's medium (DMEM; Hyclone) containing 10% fetal bovine serum (FBS, Hyclone, Logan, UT, USA), 50 units/mL penicillin (Hyclone) and 50 μg/mL streptomycin (Hyclone). All cells were cultured to have a confluency of about 80% to 90% under the conditions of 37° C. and 5% Co2.
In order to measure FXR transcription factor activity, HepG2 cells (1×10^5 cells/well) were cultured in a 48-well cell culture plate (SPL Life Science Co., Gyeonggido, Korea) for 20 hours and then transduced using Lipofectamin L3000 (Invitrogen, San Diego, CA, USA). Luciferase is an enzyme that catalyzes light-emitting reactions. […] After the reaction was completed, the drug-treated culture medium was discarded, and lysis buffer was added at 0.4 ml/well to remove the cells, then the cells were dispensed into a 96-well white plate (SPL Life Science Co.), and the luminescence level was measured using the Dual-glo Luciferase Assay System (Promega, Madison, WI, USA). For the firefly luciferase activity (to see the level of FXR expression) and renilla luciferase activity (to provide a reference value by showing constant expression), the luminescence level was measured using the GloMax Multi Detection System (Promega) and then the relative ratio (firefly luciferase activity/renilla luciferase activity) was calculated.

- FXR fold induction (dose 5 uM): 2.92
- FXR fold induction (dose 10 uM): 3.96
SMILES: CC(C)c1onc(-c2c(Cl)cccc2Cl)c1COc1ccc(/C=C/c2cccc(C(=O)O)c2)c(Cl)c1 [GW4064, reference compound]
